Measurements from patent publication US6825191B2, “Benzodiazepine derivatives” (Ajinomoto Co., Inc., priority 2000, dated 2004).

The chains behind the UniProt entries cited, without tags or fusion partners. Residues count along the entry.
UniProt P00742, 235-488 limits assumed: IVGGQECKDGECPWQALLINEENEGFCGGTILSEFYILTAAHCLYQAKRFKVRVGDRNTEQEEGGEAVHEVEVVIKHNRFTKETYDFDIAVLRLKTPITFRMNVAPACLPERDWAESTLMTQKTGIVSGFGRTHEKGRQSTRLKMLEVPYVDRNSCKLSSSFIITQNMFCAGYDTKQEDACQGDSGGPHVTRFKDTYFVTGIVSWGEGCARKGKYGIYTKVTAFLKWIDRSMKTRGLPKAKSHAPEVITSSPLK
UniProt P00742, 41-179 partner limits assumed: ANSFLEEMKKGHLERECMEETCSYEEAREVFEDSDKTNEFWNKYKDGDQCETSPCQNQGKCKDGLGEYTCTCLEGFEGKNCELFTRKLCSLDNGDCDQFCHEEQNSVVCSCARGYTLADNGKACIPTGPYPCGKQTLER

Legend:
[1] = molecular target: activated human blood coagulation factor X (Homo sapiens, UniProt P00742); assay: Determination of activity of inhibiting the activated blood-coagulation factor X (chromogenic substrate, initial rate); settings: negative logarithm of concentration inhibiting 50% of initial rate; tris hydrochloride buffer pH 8.4, room temperature; tested form: TFA
Protocol: Determination of Activity of inhibiting the Activated Blood-coagulation Factor X
130 μl of 100 mM tris hydrochloride buffer adjusted to pH 8.4 was added to 10 μl of an aqueous solution of a compound to be tested. Then 10 μl of a 0.5 unit/ml solution of activated human blood coagulation factor X (a product of Enzyme Research Co.) in tris hydrochloride buffer of pH 8.4 was added to the resultant mixture. After the incubation at room temperature for 10 minutes, 50 μl of a solution of N-benzoyl-L-isoleucyl-L-glutamyl-glycyl-L-arginyl-P-nitroanilide hydrochloride (a product of Peptide Institute Inc.) adjusted to 0.8 mM with tris hydrochloride (pH 8.4) was added thereto. The a absorbance was determined and then the initial reaction rate was determined. A control was prepared in the same manner as that described above except that the solution of the compound to be tested was replaced with 10 μl of tris hydrochloride buffer adjusted to pH 8.4. The absorbance was determined with MICROPLATE READER Model 3550-UV (a product of BIO RAD) at a wave length of 405 nm at intervals of 15 seconds for 16 minutes.

human thrombin = human thrombin (Homo sapiens, UniProt P00734); assay: Determination of thrombin-inhibiting activity (chromogenic substrate S-2238, initial rate); settings: negative logarithm of concentration inhibiting 50% of initial rate; tris hydrochloride buffer pH 8.4, room temperature; tested form: TFA
Protocol: Determination of Thrombin-inhibiting Activity
130 μL of 100 mM tris hydrochloride buffer adjusted to pH 8.4 was added to 10 μl of an aqueous solution of a test compound. Then 10 μl of a solution of human thrombin (a product of SIGMA Co.) adjusted to 2 units/ml with tris hydrochloride buffer of pH 8.4 was added to the resultant mixture. After the incubation at room temperature for 10 minutes, 50 μl of a solution of D-phenylalanine-L-pipecolyl-L-arginine-P-nitroanilide dihydrochloride (S-2238; a product of Daiichi Kagaku Yakuhin Co.) adjusted to 0.4 mM with tris hydrochloride buffer of pH 8.4 was added thereto. The absorbance was determined and then the initial reaction rate was determined. A control was prepared in the same manner as that described above except that the solution of the compound to be tested was replaced with 10 μl of tris hydrochloride buffer adjusted to pH 8.4. The absorbance was determined with MICROPLATE READER Model 3550-UV (a product of BIO RAD) at a wave length of 405 nm at intervals of 15 seconds for 16 minutes. The negative logarithm (pIC50) of a concentration of the test compound which inhibits 50% of the activity (initial rate) of the thrombin in the absence of the test compound was determined, and employed as the index of the activity of inhibiting thrombin.

CN1CCN=C1c1ccc(CN2C(=O)CN(C(=O)c3ccc(Cl)cc3)Cc3ccccc32)c(F)c1
Activity of inhibiting activated blood coagulation factor X (pIC50) [1]: 6.5 | Thrombin-inhibiting activity (pIC50) (human thrombin): 4.1
